For 1 compound, AR expression/% results are on record in patent US12685742B2, “Application of stachyose in preparation of drug for treating castration-resistant prostate cancer” (priority 2021, dated 2026).

The test system of this test is AR. Kind of test: AR immunohistochemistry of prostate tissue slices, C-MYC-over-expressed prostate cancer mouse model. In kind it is in vivo, mice. To be noted: 30 d after drug tolerance relapse, immunohistochemical positive cells. An excerpt:
Then, the necks of some mice were severed, and the prostate cancers of the mice were taken, photographed and weighed. […] Then, the necks of the mice were severed, and the prostate cancers of the mice were taken, photographed, weighed and subjected to experiments including immunohistochemistry.

`CNC(=O)c1ccc(N2C(=S)N(c3ccc(C#N)c(C(F)(F)F)c3)C(=O)C2(C)C)cc1F` [Enza, Enzalutamide] returned an AR expression/% (Enza 10 mg/Kg) of 89.4% and an AR expression/% (Enza 90 mg/Kg) of 82.6%.
